From ChEMBL document CHEMBL3769315 (J Med Chem, 2016)

Conditions: human, huh-7

SMILES | CC50 [µM]
CCN1CCN(C(c2ccccc2)c2ccc(Br)cc2)CC1 (racemic) | 35.2
NCCOCCOCCOCCOCCN1CCN(C(c2ccc(Cl)cc2)c2ccc(Cl)cc2)CC1 | 4.43
CN1CCN(C(c2ccccc2)c2ccccc2)CC1 [CYCLIZINE] | > 100
CN1CCN(C(c2ccc(Cl)cc2)c2ccc(Cl)cc2)CC1 | 21.3
Brc1ccc(C(c2ccccc2)N2CCNCC2)cc1 (racemic) | 7.93
